Results reported in patent US4710578A, “Isothiuronium salts” (Peremartoni Vegyipari Vallalat, priority 1984, dated 1987).

What was measured:
[1] = tested on: tumor cells; test: Testing of antitumor effect (overall)
[2] = tested on: NK-yl ascites tumor; test: Combinations with known cytostatic agents in NK-ly ascites tumor; format: in vivo, CFLP mice; details: with cyclophosphamide, carnomustine, degranol, dibromo dulcitol or dibromo mannitol
[3] = tested on: NK-ly-ascites lymphoma; test: NK-ly-ascites lymphoma in vivo; design: species or system CFLP male mice; details: dose-dependant

## N=C(N)NC(=N)SCCBr
[1]
  Antitumor effect: outstanding antitumor effect
[2]
  Antitumor effect of combination vs cytostatic agent alone: the antitumor effect was strengthened
  Immunodepression of combination vs cytostatic agent alone: immunodepression decreased
[3]
  Survival rate and lifetime: increase survival rate and lifetime in a dose-dependant manner

## N=C(N)NC(=N)SCCCl
[1]
  Antitumor effect: outstanding antitumor effect
[2]
  Antitumor effect of combination vs cytostatic agent alone: the antitumor effect was strengthened
  Immunodepression of combination vs cytostatic agent alone: immunodepression decreased
[3]
  Survival rate and lifetime: increase survival rate and lifetime in a dose-dependant manner
